Source: paper PMC11470957, “Principles of paralog-specific targeted protein degradation engaging the C-degron E3 KLHDC2” (Nature Communications, 2024)
Where “and” joins values, the source holds several entries; their conditions need not be identical. Equal entries are not always repeated. Where two headings read alike, the source gives them in different places. Each block holds one molecule with its values, some of them ahead of it.

Amino acid sequences for entries named in this document (tags omitted). Residues count along the entry.
UniProt P25440, 344-455 G382E: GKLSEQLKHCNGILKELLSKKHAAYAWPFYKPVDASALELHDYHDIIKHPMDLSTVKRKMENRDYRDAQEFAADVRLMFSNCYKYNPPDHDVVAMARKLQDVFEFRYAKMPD
UniProt P25440, whole entry: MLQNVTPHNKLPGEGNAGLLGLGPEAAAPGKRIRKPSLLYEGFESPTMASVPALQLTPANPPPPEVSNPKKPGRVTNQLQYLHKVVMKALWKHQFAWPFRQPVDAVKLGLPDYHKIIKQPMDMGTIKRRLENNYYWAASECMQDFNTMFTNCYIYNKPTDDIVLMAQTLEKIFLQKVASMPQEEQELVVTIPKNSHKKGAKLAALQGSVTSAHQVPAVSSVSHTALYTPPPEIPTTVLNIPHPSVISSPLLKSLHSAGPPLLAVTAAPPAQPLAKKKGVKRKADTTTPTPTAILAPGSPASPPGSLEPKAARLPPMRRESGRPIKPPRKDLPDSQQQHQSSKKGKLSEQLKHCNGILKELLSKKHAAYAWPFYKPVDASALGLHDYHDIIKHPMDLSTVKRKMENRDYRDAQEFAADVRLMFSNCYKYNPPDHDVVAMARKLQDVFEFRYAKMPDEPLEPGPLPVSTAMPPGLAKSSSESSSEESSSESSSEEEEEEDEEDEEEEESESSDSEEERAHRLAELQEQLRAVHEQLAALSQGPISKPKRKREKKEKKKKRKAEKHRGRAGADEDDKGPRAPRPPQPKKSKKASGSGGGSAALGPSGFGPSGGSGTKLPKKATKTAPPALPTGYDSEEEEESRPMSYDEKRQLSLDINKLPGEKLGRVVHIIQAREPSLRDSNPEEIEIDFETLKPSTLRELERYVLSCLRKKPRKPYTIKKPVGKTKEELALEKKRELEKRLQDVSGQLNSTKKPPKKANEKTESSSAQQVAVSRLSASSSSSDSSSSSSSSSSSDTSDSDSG
UniProt P25440, 344-455: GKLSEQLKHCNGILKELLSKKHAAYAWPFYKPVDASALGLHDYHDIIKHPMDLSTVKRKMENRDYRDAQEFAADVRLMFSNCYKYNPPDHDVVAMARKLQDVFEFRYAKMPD
UniProt Q15059, whole entry: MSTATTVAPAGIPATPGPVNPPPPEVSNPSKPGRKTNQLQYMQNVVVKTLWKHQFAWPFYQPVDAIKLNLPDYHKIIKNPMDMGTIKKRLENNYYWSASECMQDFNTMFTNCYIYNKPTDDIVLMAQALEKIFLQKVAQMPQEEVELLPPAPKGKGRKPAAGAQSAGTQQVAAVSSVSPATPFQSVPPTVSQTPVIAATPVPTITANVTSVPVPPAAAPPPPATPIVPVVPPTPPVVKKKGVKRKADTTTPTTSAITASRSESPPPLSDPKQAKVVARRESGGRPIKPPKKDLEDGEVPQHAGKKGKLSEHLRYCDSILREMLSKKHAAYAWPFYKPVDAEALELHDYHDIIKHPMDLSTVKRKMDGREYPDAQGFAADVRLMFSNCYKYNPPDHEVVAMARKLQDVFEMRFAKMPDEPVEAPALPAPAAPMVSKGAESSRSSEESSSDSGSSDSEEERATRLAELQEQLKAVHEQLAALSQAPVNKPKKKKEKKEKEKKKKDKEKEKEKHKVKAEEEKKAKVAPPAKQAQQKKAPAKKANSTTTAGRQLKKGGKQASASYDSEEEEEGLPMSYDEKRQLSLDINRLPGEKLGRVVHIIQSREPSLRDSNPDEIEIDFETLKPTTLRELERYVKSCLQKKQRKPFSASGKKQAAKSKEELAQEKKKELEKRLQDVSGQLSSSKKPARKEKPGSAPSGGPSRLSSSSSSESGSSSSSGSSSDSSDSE
UniProt Q15059, 306-416: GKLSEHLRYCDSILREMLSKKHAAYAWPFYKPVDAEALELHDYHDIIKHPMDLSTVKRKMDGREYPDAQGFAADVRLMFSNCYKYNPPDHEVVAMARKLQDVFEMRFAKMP

Key:
neddylated CRL2^KLHDC2 = neddylated CRL2^KLHDC2 (Homo sapiens, UniProt Q9Y2U9, G405K/S406K); details: Fig4c source
BRD4 = BRD4 (Homo sapiens, UniProt O60885); assay: Western blot of BRD4 levels after cellular dosing; details: 24 h
[1] = tested on: KLHDC2, KLHDC3, KLHDC10, KLHDC1 E3 ligases
[2] = molecular target: KLHDC2^SBD / G382E BRD2^BD2 (Homo sapiens, UniProt P25440+Q9Y2U9, G382E); assay: ITC, ternary complex KLHDC2^SBD with PROTAC-G382E BRD2^BD2; details: ITC source data Fig4f; syringe KLHDC2, cell SJ46421-G382EBRD2BD2
BRD2 = BRD2 (Homo sapiens, UniProt P25440); assay: Western blot of BRD2 levels after cellular dosing; details: 24 h
BRD2^BD2 = BRD2^BD2 (Homo sapiens, UniProt P25440); assay: ITC, binary binding to BRD2^BD2; details: ITC source data Fig4a; syringe BRD2BD2, cell SJ46421
BRD3 = BRD3 (Homo sapiens, UniProt Q15059); assay: Western blot of BRD3 levels after cellular dosing; details: 24 h
[3] = tested on: CUL2^KLHDC2, CUL2^KLHDC3, CUL2^KLHDC10, CUL5^KLHDC1; assay: SJ46421-dependent BRD^BD2 ubiquitylation by KLHDC-family CRLs (E3 selectivity); details: neo-substrate ubiquitylation
[4] = molecular target: neddylated CRL2^KLHDC2 (tetrameric KLHDC2-EloB/C) (Homo sapiens, UniProt Q15059+Q9Y2U9); assay: Ubiquitylation assay monitoring disruption of the KLHDC2-EloBC tetrameric assembly
KLHDC2 = molecular target: T1, KLHDC2 (Homo sapiens, UniProt Q9Y2U9); assay: Western blot of KLHDC2 levels after cellular dosing; details: 24 h
T1 sequence (Q9Y2U9 1-406): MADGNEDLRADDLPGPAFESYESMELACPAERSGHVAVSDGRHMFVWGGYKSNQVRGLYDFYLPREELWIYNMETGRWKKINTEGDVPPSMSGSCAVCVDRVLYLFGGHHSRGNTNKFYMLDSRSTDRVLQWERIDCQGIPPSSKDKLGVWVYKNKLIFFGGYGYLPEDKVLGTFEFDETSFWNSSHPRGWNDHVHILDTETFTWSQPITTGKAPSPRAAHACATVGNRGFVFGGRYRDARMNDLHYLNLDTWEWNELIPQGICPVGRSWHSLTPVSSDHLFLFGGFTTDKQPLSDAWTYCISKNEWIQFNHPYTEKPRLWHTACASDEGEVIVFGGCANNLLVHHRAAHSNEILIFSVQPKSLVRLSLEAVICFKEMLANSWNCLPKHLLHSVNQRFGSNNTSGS

BRD3^BD2 = BRD3^BD2 (Homo sapiens, UniProt Q15059); assay: ITC, binary binding to BRD3^BD2; details: ITC source data Fig4a; syringe BRD3BD2, cell SJ46421
[5] = molecular target: T2, neddylated CRL2^KLHDC2 / BRD3^BD2 (Homo sapiens, UniProt Q15059+Q9Y2U9, Q9Y2U9:G405K/Q9Y2U9:S406K); assay: biochemical
KLHDC2^SBD / BRD2^BD2 = KLHDC2^SBD / BRD2^BD2 (Homo sapiens, UniProt P25440+Q9Y2U9); assay: ITC, ternary complex KLHDC2^SBD with PROTAC-BRD2^BD2
[6] = molecular target: T2, neddylated CRL2^KLHDC2 / BRD3^BD2
[7] = U2OS DC2KO (KLHDC2 knockout), 5µM, Fig 6b
[8] = Fig3g source, 1:1 PROTAC:BRD3^BD2 0.0625 uM
[9] = Fig3g source, 1:1 PROTAC:BRD3^BD2 0.125 uM
[10] = Fig3g source, 1:1 PROTAC:BRD3^BD2 0.25 uM
[11] = Fig3g source, 1:1 PROTAC:BRD3^BD2 0.5 uM
[12] = Fig3g source, 1:1 PROTAC:BRD3^BD2 1 uM
[13] = Fig4c source, PROTAC-BRD3BD2 0.005 uM
[14] = Fig4c source, PROTAC-BRD3BD2 0.01 uM
[15] = Fig4c source, PROTAC-BRD3BD2 0.04 uM
[16] = Fig4c source, PROTAC-BRD3BD2 0.37 uM
[17] = Fig4c source, PROTAC-BRD3BD2 1.1 uM
[18] = Fig4c source, PROTAC-BRD3BD2 3.3 uM
[19] = Fig4c source, PROTAC-BRD3BD2 10 uM

SMILES: Cc1sc2c(c1C)C(c1ccc(Cl)cc1)=N[C@@H](CC(=O)N1CCN(CCOc3cccc4ccc(-c5nc(CC(=O)NCC(=O)O)cs5)cc34)CC1)c1nnc(C)n1-2 [SJ46421]
diGly substrate ubiquitylation remaining (0 uM = 100), Rep1/Rep2 (neddylated CRL2^KLHDC2; PROTAC alone 0.005 uM): 101.067 and 100 | diGly substrate ubiquitylation remaining (0 uM = 100), Rep1/Rep2 (neddylated CRL2^KLHDC2; PROTAC alone 0.01 uM): 100.794 and 94.7859 | diGly substrate ubiquitylation remaining (0 uM = 100), Rep1/Rep2 (neddylated CRL2^KLHDC2; PROTAC alone 0.04 uM): 85.5112 and 80.6034 | diGly substrate ubiquitylation remaining (0 uM = 100), Rep1/Rep2 (neddylated CRL2^KLHDC2; PROTAC alone 0.37 uM): 80.1665 and 69.9122 | diGly substrate ubiquitylation remaining (0 uM = 100), Rep1/Rep2 (neddylated CRL2^KLHDC2; PROTAC alone 1.1 uM): 63.0506 and 54.9804 | diGly substrate ubiquitylation remaining (0 uM = 100), Rep1/Rep2 (neddylated CRL2^KLHDC2; PROTAC alone 3.3 uM): 24.4113 and 17.9182 | diGly substrate ubiquitylation remaining (0 uM = 100), Rep1/Rep2 (neddylated CRL2^KLHDC2; PROTAC alone 10 uM): 16.8304 and 9.612 | BRD4 level relative to DMSO (100%) (BRD4; 293T, 2.5µM, Fig S6a): 102 +/- 5.9% | BRD4 level relative to DMSO (100%) (BRD4; 293T, 5µM, Fig S6a): 92 +/- 9.1% | BRD4 level relative to DMSO (100%) (BRD4; MDA-MB-468, 10µM, Fig S6b): 96 +/- 3.5% | BRD4 level relative to DMSO (100%) (BRD4; [7]): 101 +/- 17% | BRD4 level relative to DMSO (100%) (BRD4; U2OS, 5µM, Fig 6b): 111 +/- 11% | selectivity toward KLHDC2 over KLHDC10 [1]: ~ 40 fold | (-)TDS, Rep1/Rep2 [2]: 0.62 and 0.68 | BRD2 level relative to DMSO (100%) (BRD2; 293T, 2.5µM, Fig S6a): 80 +/- 11% | BRD2 level relative to DMSO (100%) (BRD2; 293T, 5µM, Fig S6a): 80 +/- 6.7% | BRD2 level relative to DMSO (100%) (BRD2; MDA-MB-468, 10µM, Fig S6b): 72 +/- 14% | BRD2 level relative to DMSO (100%) (BRD2; [7]): 107 +/- 7.3% | BRD2 level relative to DMSO (100%) (BRD2; U2OS, 5µM, Fig 6b): 127 +/- 13% | (-)TDS, Rep1/Rep2 (BRD2^BD2): 2.71 and 2.54 | BRD3 level relative to DMSO (100%) (BRD3; 293T, 2.5µM, Fig S6a): 82 +/- 5.3% | BRD3 level relative to DMSO (100%) (BRD3; 293T, 5µM, Fig S6a): 78 +/- 7.4% | BRD3 level relative to DMSO (100%) (BRD3; MDA-MB-468, 10µM, Fig S6b): 71 +/- 15% | BRD3 level relative to DMSO (100%) (BRD3; [7]): 103 +/- 5.6% | selectivity for KLHDC2 over other KLHDC-family CRLs [3]: greater than two orders-of-magnitude | BRD3~UB level, Rep1/Rep2 ([4]; Monomer, + BRD3-SJ46421, pre-incubation 0): 100 | BRD3~UB level, Rep1/Rep2 ([4]; Tetramer, + BRD3-SJ46421, pre-incubation 0): 55.3818 and 61.132 | BRD3~UB level, Rep1/Rep2 ([4]; Tetramer, + BRD3-SJ46421, pre-incubation 2): 98.4918 and 103.234 | BRD3~UB level, Rep1/Rep2 ([4]; Tetramer, + BRD3-SJ46421, pre-incubation 5): 99.3472 and 103.232 | shift of ubiquitin targeting from KLHDC2 to BRD3^BD2 ([4]; pre-incubation with SJ46421-BRD3^BD2 for as little as two minutes): complete switch in ubiquitin targeting to BRD3^BD2 | KLHDC2 level relative to DMSO (100%) (KLHDC2; 293T, 2.5µM, Fig S6a): 105 +/- 5.2% | KLHDC2 level relative to DMSO (100%) (KLHDC2; 293T, 5µM, Fig S6a): 107 +/- 6.8% | KLHDC2 level relative to DMSO (100%) (KLHDC2; MDA-MB-468, 10µM, Fig S6b): 124 +/- 6.7% | KLHDC2 level relative to DMSO (100%) (KLHDC2; [7]): 0 +/- 0% | (-)TDS, Rep1/Rep2 (BRD3^BD2): 5.34 and 5 | Ki [5]: 7.84 nM | cooperativity α = Kd(Binary)/Kd(Ternary) (KLHDC2^SBD / BRD2^BD2): 1.4 | diGly substrate ubiquitylation remaining (0 uM = 100), Rep1/Rep2 [6, 8]: 31.1086 and 36.9335 | diGly substrate ubiquitylation remaining (0 uM = 100), Rep1/Rep2 [6, 9]: 12.577 and 12.207 | diGly substrate ubiquitylation remaining (0 uM = 100), Rep1/Rep2 [6, 10]: 5.502 and 5.266 | diGly substrate ubiquitylation remaining (0 uM = 100), Rep1/Rep2 [6, 11]: 4.738 and 3.146 | diGly substrate ubiquitylation remaining (0 uM = 100), Rep1/Rep2 [6, 12]: 4.176 and 3.599 | diGly substrate ubiquitylation remaining (0 uM = 100), Rep1/Rep2 [6, 13]: 81.2598 and 77.4379 | diGly substrate ubiquitylation remaining (0 uM = 100), Rep1/Rep2 [6, 14]: 35.6946 and 31.5513 | diGly substrate ubiquitylation remaining (0 uM = 100), Rep1/Rep2 [6, 15]: 4.4 and 4.403 | diGly substrate ubiquitylation remaining (0 uM = 100), Rep1/Rep2 [6, 16]: 2.657 and 1.959 | diGly substrate ubiquitylation remaining (0 uM = 100), Rep1/Rep2 [6, 17]: 1.575 and 1.863 | diGly substrate ubiquitylation remaining (0 uM = 100), Rep1/Rep2 [6, 18]: 1.575 and 3.083 | diGly substrate ubiquitylation remaining (0 uM = 100), Rep1/Rep2 [6, 19]: 2.138 and 1.673

diGly substrate ubiquitylation remaining (0 uM = 100), Rep1/Rep2 (neddylated CRL2^KLHDC2; PROTAC alone 0.005 uM): 102.475 and 100 | diGly substrate ubiquitylation remaining (0 uM = 100), Rep1/Rep2 (neddylated CRL2^KLHDC2; PROTAC alone 0.01 uM): 102.64 and 108.67 | diGly substrate ubiquitylation remaining (0 uM = 100), Rep1/Rep2 (neddylated CRL2^KLHDC2; PROTAC alone 0.04 uM): 101.626 and 95.1143 | diGly substrate ubiquitylation remaining (0 uM = 100), Rep1/Rep2 (neddylated CRL2^KLHDC2; PROTAC alone 0.37 uM): 102.536 and 100.616 | diGly substrate ubiquitylation remaining (0 uM = 100), Rep1/Rep2 (neddylated CRL2^KLHDC2; PROTAC alone 1.1 uM): 84.0203 and 84.5553 | diGly substrate ubiquitylation remaining (0 uM = 100), Rep1/Rep2 (neddylated CRL2^KLHDC2; PROTAC alone 3.3 uM): 76.072 and 79.4906 | diGly substrate ubiquitylation remaining (0 uM = 100), Rep1/Rep2 (neddylated CRL2^KLHDC2; PROTAC alone 10 uM): 43.3492 and 46.6583 | Ki [5]: 610 nM | diGly substrate ubiquitylation remaining (0 uM = 100), Rep1/Rep2 [6, 8]: 88.9579 and 87.2342 | diGly substrate ubiquitylation remaining (0 uM = 100), Rep1/Rep2 [6, 9]: 83.5543 and 79.7327 | diGly substrate ubiquitylation remaining (0 uM = 100), Rep1/Rep2 [6, 10]: 77.3497 and 75.2985 | diGly substrate ubiquitylation remaining (0 uM = 100), Rep1/Rep2 [6, 11]: 70.6159 and 68.2842 | diGly substrate ubiquitylation remaining (0 uM = 100), Rep1/Rep2 [6, 12]: 59.8368 and 55.2835 | diGly substrate ubiquitylation remaining (0 uM = 100), Rep1/Rep2 ([6]; Fig3g source, 1:1 PROTAC:BRD3^BD2 2 uM): 48.1841 and 49.2421 | diGly substrate ubiquitylation remaining (0 uM = 100), Rep1/Rep2 [6, 13]: 103.037 and 109.197 | diGly substrate ubiquitylation remaining (0 uM = 100), Rep1/Rep2 [6, 14]: 100.025 and 100.853 | diGly substrate ubiquitylation remaining (0 uM = 100), Rep1/Rep2 [6, 15]: 82.1957 and 85.1933 | diGly substrate ubiquitylation remaining (0 uM = 100), Rep1/Rep2 [6, 16]: 68.9683 and 76.8326 | diGly substrate ubiquitylation remaining (0 uM = 100), Rep1/Rep2 [6, 17]: 37.6292 and 52.498 | diGly substrate ubiquitylation remaining (0 uM = 100), Rep1/Rep2 [6, 18]: 16.5064 and 26.7706 | diGly substrate ubiquitylation remaining (0 uM = 100), Rep1/Rep2 [6, 19]: 8.538 and 13.7087 | enhancement of the IC50, ternary complex vs ligand alone ([6]; with BRD3^BD2 vs alone): ~ 7 fold
SMILES: Cc1sc2c(c1C)C(c1ccc(Cl)cc1)=N[C@@H](CC(=O)N1CCN(CCOc3ccc4ccc(-c5nc(CC(=O)NCC(=O)O)cs5)cc4c3)CC1)c1nnc(C)n1-2 [SJ46423]
